Earlier results as cited in US20130096134A1, “HETEROCYCLIC COMPOUNDS AND THEIR USES” (Amgen Inc., priority 2010, published 2013).

Amino acid sequences for entries named in this document (tags omitted).
UniProt P42338, whole entry, species assumed: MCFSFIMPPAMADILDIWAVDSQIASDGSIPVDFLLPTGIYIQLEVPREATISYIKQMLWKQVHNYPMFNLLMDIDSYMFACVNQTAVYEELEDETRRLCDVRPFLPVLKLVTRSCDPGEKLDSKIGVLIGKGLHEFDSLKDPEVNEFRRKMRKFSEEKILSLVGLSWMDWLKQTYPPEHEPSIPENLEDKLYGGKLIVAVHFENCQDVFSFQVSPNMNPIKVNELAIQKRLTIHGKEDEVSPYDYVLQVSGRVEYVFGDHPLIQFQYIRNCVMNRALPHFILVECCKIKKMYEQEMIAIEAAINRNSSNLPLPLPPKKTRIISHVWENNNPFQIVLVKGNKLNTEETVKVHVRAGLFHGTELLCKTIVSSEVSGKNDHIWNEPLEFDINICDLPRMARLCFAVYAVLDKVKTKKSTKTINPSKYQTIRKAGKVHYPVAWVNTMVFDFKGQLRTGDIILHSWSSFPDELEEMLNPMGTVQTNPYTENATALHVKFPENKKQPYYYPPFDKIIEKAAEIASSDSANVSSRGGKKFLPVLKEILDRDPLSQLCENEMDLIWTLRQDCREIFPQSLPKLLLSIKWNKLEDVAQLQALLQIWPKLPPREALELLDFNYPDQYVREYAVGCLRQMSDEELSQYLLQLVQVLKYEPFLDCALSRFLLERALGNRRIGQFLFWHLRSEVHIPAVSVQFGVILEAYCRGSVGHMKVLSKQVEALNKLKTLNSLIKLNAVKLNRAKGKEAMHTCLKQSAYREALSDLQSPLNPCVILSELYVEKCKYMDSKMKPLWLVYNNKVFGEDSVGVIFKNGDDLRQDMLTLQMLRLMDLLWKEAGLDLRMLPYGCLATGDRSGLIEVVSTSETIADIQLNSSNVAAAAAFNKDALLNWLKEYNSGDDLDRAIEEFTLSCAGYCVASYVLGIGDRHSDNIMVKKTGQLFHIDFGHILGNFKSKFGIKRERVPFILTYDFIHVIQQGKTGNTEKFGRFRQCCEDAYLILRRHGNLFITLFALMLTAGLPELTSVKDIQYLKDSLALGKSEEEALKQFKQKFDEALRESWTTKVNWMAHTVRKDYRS

Target: P110β (Homo sapiens, UniProt P42338)
Settings: read-out: potency on beta

IC50: 7 nM
SMILES: Cc1cc(C(C)Nc2ccccc2)c2nc(N3CCOCC3)cc(=O)n2c1 (stereo not shown) [TGX-221]
